In paper PMC3504387 (Chemmedchem, 2012):

Biological target: T1, GST–PPARα (ligand binding domain, TR-FRET) (Homo sapiens, UniProt Q07869)
T1 construct: gene PPARA
T1 sequence (Q07869 196-468 limits assumed): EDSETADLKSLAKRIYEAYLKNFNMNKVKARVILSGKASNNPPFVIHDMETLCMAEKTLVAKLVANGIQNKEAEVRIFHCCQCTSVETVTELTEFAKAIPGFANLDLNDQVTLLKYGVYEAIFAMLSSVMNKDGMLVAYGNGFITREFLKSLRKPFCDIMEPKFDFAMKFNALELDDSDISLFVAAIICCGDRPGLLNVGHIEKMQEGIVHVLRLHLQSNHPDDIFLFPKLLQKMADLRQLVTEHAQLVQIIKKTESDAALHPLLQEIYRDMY
Assay: TR-FRET cofactor peptide recruitment

- EC50: 479 nM
SMILES: Cc1oc(-c2ccccc2)nc1CCOc1ccc(C[C@H](Nc2ccccc2C(=O)c2ccccc2)C(=O)O)cc1 [Farglitazar]
